Data taken from publication PMC8709454, “Enhanced Skin Delivery of Therapeutic Peptides Using Spicule-Based Topical Delivery Systems” (Pharmaceutics, 2021).

Details: FITC-INS 0.1 mg/mL, mean ± SD; for deposition of FITC-INS in deep skin layers (dermis and receptor): 200 μL, occlusive; for transdermal flux of FITC-INS: porcine skin, PBS pH 7.4, 37 °C

Fluorescein isothiocyanate insulin [FITC-INS]
deposition of FITC-INS in deep skin layers (dermis and receptor) (Dermaroller 200 μm (DR) treatment 2 min, Franz cell, receptor PBS pH 7.4, 37 °C, fluorescence): 3.4 ± 0.7% | transdermal flux of FITC-INS (Dermaroller (DR) treatment, Franz cell, fluorescence): 28.1 ± 5.8 ng/cm^2/h | deposition of FITC-INS in deep skin layers (dermis and receptor) (SC peeling treatment (tape-stripped 30 times), Franz cell, receptor PBS pH 7.4, 37 °C, fluorescence): 63.2 ± 1.1% | deposition of FITC-INS in deep skin layers (dermis and receptor) (SHS treatment (massaged 2 min), Franz cell, receptor PBS pH 7.4, 37 °C, fluorescence): 54.8 ± 3.9% | transdermal flux of FITC-INS (SHS treatment, Franz cell, fluorescence): 457.0 ± 32.3 ng/cm^2/h | deposition of FITC-INS in deep skin layers (dermis and receptor) (passive penetration, Franz cell 1.77 cm^2, receptor PBS pH 7.4 0.2 M, 37 °C, 600 rpm, fluorescence 495/525 nm): 0.6 ± 0.3% | transdermal flux of FITC-INS (passive penetration, Franz cell, fluorescence): 5.0 ± 2.2 ng/cm^2/h

Read-outs that look alike come from different tables or passages of the source.
